Only a part is listed here, and it is no random draw. Inconclusive results are not listed. Active and inactive are the calls of the source. Calls follow the shape of the dose curve; as a rule, active = well fitted curve in the direction sought with a large enough effect; inconclusive = small, poorly fitted or top-dose-only effect, or another doubt; inactive = no such curve, though single readings can be large; an effect the other way counts as inactive or inconclusive.
Experiments:
[1] = test system: Nanoluciferase (engineered Oplophorus gracilirostris luciferase); test: Primary Nanoluciferase (NLuc) qHTS assay for identification of artifact compounds. (AID 1845222); conditions: NLuc-conditioned medium, Nano-Glo luminescence, 5 min; at 54.1 µM (top of the series);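 also: 0% = DMSO and -100% = no enzyme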
In short: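 Luminescence read-out of secreted NLuc in S16 cell conditioned medium (1:55); compounds tested with 15 min RT preincubation, then Nano-Glo substrate 1:100, 5 min. % inhibition vs no-enzyme and DMSO controls, 4-parameter Hill fit.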

[2] = Primary redox qHTS assay for identification of artifact compounds. (AID 1845223); conditions: Amplex Red/HRP redox cycling with DTT, fluorescence; at 53.8 µM (top of the series);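 also: 0% = DMSO and 100% = reference compound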
In short: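 Redox-cycling detection via DTT (250 uM final) oxidation coupled to Amplex Red (25 uM)/HRP (250 mU/mL) in HBSS. 15 min preincubation plus 30 min after DTT, room temperature. Ex/Em 525/598 nm; 4-parameter Hill fit against DMSO and 10 uM DA3003.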

[3] = Quantitative High-Throughput drug screen in 47 multiple myeloma cell lines against the NCATS MIPE library collection: FR4_PLB cell viability assay (AID 1918924;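 also: 100% = DMSO-treated cells and 0% = wells with media only; nearly all actives have a fitted effect of over 35% in size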); conditions: FR4_PLB myeloma cells viability, CellTiter-Glo ATP, 48 h; at 45.8 µM (top of the series)
In short: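 Relative luminescence from CellTiter-Glo served as the viability signal, referenced to DMSO-treated (100%) and cell-free medium (0%) controls. Treatment lasted 48 hours at 37C with 500 cells per well.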

[4] = Quantitative High-Throughput drug screen in 47 multiple myeloma cell lines against the NCATS MIPE library collection: EJM_DSMZ cell viability assay (AID 1918926;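 also: 100% = DMSO-only wells and 0% = media-only wells without cells; nearly all actives have a fitted effect of over 30% in size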); conditions: EJM myeloma cell viability, CellTiter-Glo ATP, 48 h; at 45.8 µM (top of the series)
From the text: (§1) PI: Beverly A. Mock Ph.D.
(§2) Laboratory of Cancer Biology and Genetics,
(§3) Center for Cancer Research, National Cancer Institute,
(§4) National Institute of Health, Bethesda, Maryland
(§5) Drug resistance and disease progression are common in multiple myeloma (MM) patients, underscoring the need for new therapeutic combinations. […] We hypothesized that effective combinations would reduce MYC expression and enhance p16 activity. […] These preclinical data identify potentially useful drug combinations for evaluation in drug-resistant MM and reveal potential mechanisms of combined drug sensitivity.
(§6) Described herein is the primary MIPE qHTS used to cherrypick compounds. Validated compounds were then further tested for potential synergistic activiy.
[1] […]
(§7) 5; Detector; 425V; Luminescence; Viewlux PerkinElmer. […]
(§8) 1. […] Briefly, the corresponding myeloma cell lines were screened in 1,536-well plates with 500 cells, 5-uL per well for inhibition of cell viability (assessed by measuring ATP levels with CellTiterGlo). […]
(§9) 5. Signal was measured as median relative luminescence units on a ViewLux (PerkinElmer) multiplate reader. […]

[5] = Quantitative High-Throughput drug screen in 47 multiple myeloma cell lines against the NCATS MIPE library collection: AMO1_DSMZ cell viability assay (AID 1918927;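 also: 100% = DMSO only wells and 0% = cell-free media only wells; nearly all actives have a fitted effect of over 30% in size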); conditions: AMO1 myeloma cells viability, CellTiter-Glo ATP luminescence, 48 h; at 45.8 µM (top of the series)
From the text: as §1, §2, §3, §4, §5, §6
[1] […]
as §7, §8, §9

[6] = Quantitative High-Throughput drug screen in 47 multiple myeloma cell lines against the NCATS MIPE library collection: ARP1_JJKsccF8 cell viability assay (AID 1918928; also: nearly all actives have a fitted effect of over 40% in size); conditions: ARP1 myeloma cells viability, CellTiter-Glo ATP, 48 h; at 45.8 µM (top of the series)
In short: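 Each line was plated at 500 cells/well and treated 48 h with library drugs. Viability came from CellTiter-Glo luminescence relative to DMSO and cell-free medium controls.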

[7] = Quantitative High-Throughput drug screen in 47 multiple myeloma cell lines against the NCATS MIPE library collection: ARD_JJKsccE7 cell viability assay (AID 1918929;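 also: 100% = DMSO-only wells and 0% = media-only wells without cells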); conditions: ARD myeloma cell line viability, CellTiter-Glo, 48 h; at 45.8 µM (top of the series)
From the text: as §1, §2, §3, §4, §5, §6
[1] […]
as §7, §8, §9

[8] = Quantitative High-Throughput drug screen in 47 multiple myeloma cell lines against the NCATS MIPE library collection: Karpas620_DSMZ cell viability assay (AID 1918959); conditions: Karpas620 myeloma viability, CellTiter-Glo ATP luminescence, 48 h; at 45.8 µM (top of the series);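 also: 100% = DMSO-only wells and 0% = cell-free media-only wells; nearly all actives have a fitted effect of over 30% in size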
From the text: as §1, §2, §3, §4, §5, §6
[1] […]
as §7, §8, §9

[9] = Quantitative High-Throughput drug screen in 47 multiple myeloma cell lines against the NCATS MIPE library collection: Karpas417_ECACC cell viability assay (AID 1918961); conditions: Karpas417 myeloma viability, CellTiter-Glo ATP luminescence, 48 h; at 45.8 µM (top of the series);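 also: 100% = DMSO only wells and 0% = media only wells without cells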
From the text: as §1, §2, §3, §4, §5, §6
[1] […]
as §7, §8, §9

[10] = Quantitative High-Throughput drug screen in 47 multiple myeloma cell lines against the NCATS MIPE library collection: JIM3_ECACC cell viability assay (AID 1918963;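 also: 100% = DMSO-only wells and 0% = media-only wells without cells; nearly all actives have a fitted effect of over 35% in size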); conditions: JIM3 myeloma viability, CellTiter-Glo ATP, 48 h; at 45.8 µM (top of the series)
From the text: as §1, §2, §3, §4, §5, §6
[1] […]
as §7, §8, §9

CC(=O)N1CCc2ccc(N(C(=O)/C=C/c3cccc(C#N)c3)C3CCN(CCC4CCCC4)CC3)cc21
inactive: activity, negative = inhibition [1] 0.627% | redox activity (% of DA3003) [2] 6.59%

CCOC(=O)C(=O)CBr
inactive: viability (% of DMSO control) [3] 119% | viability, % of control [4] 92.4% | viability, % of DMSO [5] 106% | viability [6] 91.7% | viability [7] 103% | viability (% of DMSO) [8] 93.9% | viability (% of DMSO) [9] 153% | viability, percent of control [10] 105%

From PubChem BioAssay (NCATS)
